Reference: patent US20120190814A1, “Thiol Protecting Group” (UCL BUSINESS PLC, priority 2009, published 2012)

Amino acid sequences for entries named in this document (tags omitted). A change or cut given only in a name is not applied to a line headed by its entry.
UniProt P30874: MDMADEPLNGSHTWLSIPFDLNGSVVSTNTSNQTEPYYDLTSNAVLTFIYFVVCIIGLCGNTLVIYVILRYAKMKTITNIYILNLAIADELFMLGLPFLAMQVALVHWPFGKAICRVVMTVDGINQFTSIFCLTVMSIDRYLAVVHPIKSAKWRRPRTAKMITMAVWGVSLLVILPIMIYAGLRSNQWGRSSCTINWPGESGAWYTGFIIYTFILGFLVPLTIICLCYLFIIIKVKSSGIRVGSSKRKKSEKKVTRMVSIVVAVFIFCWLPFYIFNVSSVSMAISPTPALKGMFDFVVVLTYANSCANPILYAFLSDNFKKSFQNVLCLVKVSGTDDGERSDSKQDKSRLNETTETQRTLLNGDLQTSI

Target: T1, human somatostatin receptor 2 (Homo sapiens, UniProt P30874)
T1 construct: host or cells: HEK293 cells stably expressing Kir3.1 and Kir3.2A
Test: whole cell patch-clamp current recordings, retained biological activity of bridged somatostatins
Format: cell-based
Details: HEK 293 cells expressing HKIR3.1/3.2 channel and human somatostatin receptor 2; 20 μM applied; cells clamped at −60 mV; compared with somatostatin
Procedure: HEK 293 cells expressing HKIR3.1/3.2 channel and human somatostatin receptor 2 were treated with these compounds, and whole cell patch-clamp current recordings taken.
Cell-culture methods and the generation of stable cell lines were carried out as described in J Biol Chem 275, 921-9 (2000). HEK293 cells (human embryonic kidney cell line) stably expressing Kir3.1 and Kir3.2A channels were maintained in minimum essential medium supplemented with 10% foetal calf serum and 727 μg of G418 (Invitrogen), at 37° C. in humidified atmosphere (95% O2, 5% CO2). Cells were transiently transfected with SSTR2 DNA (Missouri S&T cDNA Resource Center) along with pEGFP-N1 (Clontech) for visualization of transfected cells using epifluorescence. Transfections were performed with 5 μl of Fugene HD (Roche) and 800 ng SSTR2-DNA and 40 ng EGFP-DNA per 97 μl of cell culture medium (containing no serum or antibiotics).
Preparation of somatostatin and analogues for patch-clamp experiments Bridged somatostatins were prepared as described above. Somatostatin and its analogues were dialysed for 24 h at 4 ° C. in buffer (50 mM sodium phosphate, pH 6.2) to remove the organic solvents. After dialysis the concentration was determined and the peptides stored at 4 ° C. A final concentration of 20 μM somatostatin and analogues were used (dilution was done in the extracellular patch-clamp buffer).
Whole cell patch-clamp current recordings were performed with an Axopatch 200B amplifier (Axon Instruments) using fire-polished pipettes with a resistance of 3-4 MΩ pulled from filamented borosilicated glass capillaries (Harvard Apparatus, 1.5 mm OD×1.17 mm ID). Data was acquired and analysed via a Digidata 1322A interface (Axon Instruments) and pCLAMP software (version 8.1, Axon Instruments). A fast perfusion system was used to apply somatostatin and analogues (Rapid Solution Changer, RSC-160, Bio-Logic France). Cells were clamped at −60 mV. […] For each cell it was assessed if flow artifacts resulting from the pressure of drug application were present. […]

Row | Substance | activation of GIRK currents (current amplitude)
1 | PEGylated-dibromomaleimide bridged analogue: somatostatin bridged with an N-PEG dibromomaleimide derivative | robust activation of GIRK currents in an amplitude comparable to somatostatin iteslf
2 | dibromomaleimide bridged analogue: somatostatin whose reduced disulfide cysteines are bridged by reaction with dibromomaleimide | robust activation of GIRK currents in an amplitude comparable to somatostatin iteslf
3 | fluorescein dibromomaleimide-bridged analogue: somatostatin bridged with N-fluorescein-dibromomaleimide | robust activation of GIRK currents in an amplitude comparable to somatostatin iteslf
